ChEMBL document CHEMBL2021911 (Bioorg Med Chem Lett, 2012)

The chains behind the UniProt entries cited, without tags or fusion partners.
UniProt P20309, whole entry, looked up: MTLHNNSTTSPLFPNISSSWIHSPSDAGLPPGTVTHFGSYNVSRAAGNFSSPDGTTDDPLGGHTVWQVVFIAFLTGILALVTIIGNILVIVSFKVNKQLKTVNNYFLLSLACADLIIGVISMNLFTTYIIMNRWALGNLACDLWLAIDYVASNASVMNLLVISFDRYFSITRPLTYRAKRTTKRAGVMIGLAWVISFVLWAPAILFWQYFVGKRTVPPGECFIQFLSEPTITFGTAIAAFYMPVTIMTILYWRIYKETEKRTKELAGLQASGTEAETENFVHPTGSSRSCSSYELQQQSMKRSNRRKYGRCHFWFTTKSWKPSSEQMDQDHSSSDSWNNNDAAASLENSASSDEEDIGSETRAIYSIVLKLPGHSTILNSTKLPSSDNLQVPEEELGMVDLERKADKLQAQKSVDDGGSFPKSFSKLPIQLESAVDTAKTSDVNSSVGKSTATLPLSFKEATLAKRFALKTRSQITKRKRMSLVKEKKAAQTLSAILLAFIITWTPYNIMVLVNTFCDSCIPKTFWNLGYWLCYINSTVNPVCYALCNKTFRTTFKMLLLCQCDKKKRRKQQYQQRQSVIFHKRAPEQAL

Molecular target: Muscarinic acetylcholine receptor M3 (Homo sapiens, UniProt P20309)
Assay: Antagonist activity at human muscarinic M3 receptor by calcium mobilization assay
Type: functional

| SMILES | Activity |
| --- | --- |
| CCOC(=O)N1C2CCC1CC(N1CCC[C@@H](NC(=O)c3ccccc3)C1)C2 (mixture of isomers) | inactive |
| CCOC(=O)N1CCC(NCCNC(=O)c2ccccc2C)CC1 | inactive |

Calls of active or inactive are those of the source. No cut-off for these calls is given here.
